From ChEMBL document CHEMBL5727566, “Cycloalkylamines as monoamine reuptake inhibitors” (2020)
“And” between values parts separate entries of the source, which are not always exact repeats. Equal entries are not always repeated.

Amino acid sequences for entries named in this document (tags omitted).
UniProt P31652, whole entry: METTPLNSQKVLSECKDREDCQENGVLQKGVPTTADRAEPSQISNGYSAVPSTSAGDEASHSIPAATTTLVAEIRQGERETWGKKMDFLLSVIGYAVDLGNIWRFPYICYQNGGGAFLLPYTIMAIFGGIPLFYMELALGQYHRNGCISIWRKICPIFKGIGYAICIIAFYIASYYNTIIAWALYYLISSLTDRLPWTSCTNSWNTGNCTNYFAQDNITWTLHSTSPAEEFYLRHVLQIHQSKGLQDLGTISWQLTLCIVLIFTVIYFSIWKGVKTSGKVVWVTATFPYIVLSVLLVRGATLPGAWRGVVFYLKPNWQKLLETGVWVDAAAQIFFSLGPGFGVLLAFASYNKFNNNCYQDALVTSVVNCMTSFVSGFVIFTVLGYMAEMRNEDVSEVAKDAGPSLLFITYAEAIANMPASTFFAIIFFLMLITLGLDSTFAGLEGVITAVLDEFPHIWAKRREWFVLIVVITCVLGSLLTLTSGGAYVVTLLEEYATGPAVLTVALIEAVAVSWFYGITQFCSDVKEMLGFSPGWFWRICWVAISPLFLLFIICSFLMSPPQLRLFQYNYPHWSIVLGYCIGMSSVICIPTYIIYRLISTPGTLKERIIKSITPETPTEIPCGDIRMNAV
UniProt P23977, whole entry: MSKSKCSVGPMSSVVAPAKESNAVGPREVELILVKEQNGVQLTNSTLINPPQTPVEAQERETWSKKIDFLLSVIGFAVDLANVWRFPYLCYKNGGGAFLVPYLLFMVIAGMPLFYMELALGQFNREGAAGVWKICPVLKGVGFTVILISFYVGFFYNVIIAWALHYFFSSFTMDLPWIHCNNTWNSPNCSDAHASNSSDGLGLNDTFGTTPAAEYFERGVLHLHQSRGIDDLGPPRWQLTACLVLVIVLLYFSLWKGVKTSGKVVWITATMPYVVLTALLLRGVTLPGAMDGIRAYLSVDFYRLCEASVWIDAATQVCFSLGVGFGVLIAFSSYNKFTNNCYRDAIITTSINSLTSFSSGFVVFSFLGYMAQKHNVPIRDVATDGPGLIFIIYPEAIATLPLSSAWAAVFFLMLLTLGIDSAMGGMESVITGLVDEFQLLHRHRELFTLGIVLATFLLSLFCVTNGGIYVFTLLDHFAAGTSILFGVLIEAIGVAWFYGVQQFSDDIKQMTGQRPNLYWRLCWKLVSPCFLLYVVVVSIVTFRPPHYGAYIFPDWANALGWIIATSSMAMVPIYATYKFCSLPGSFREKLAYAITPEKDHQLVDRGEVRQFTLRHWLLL
UniProt P31645, whole entry: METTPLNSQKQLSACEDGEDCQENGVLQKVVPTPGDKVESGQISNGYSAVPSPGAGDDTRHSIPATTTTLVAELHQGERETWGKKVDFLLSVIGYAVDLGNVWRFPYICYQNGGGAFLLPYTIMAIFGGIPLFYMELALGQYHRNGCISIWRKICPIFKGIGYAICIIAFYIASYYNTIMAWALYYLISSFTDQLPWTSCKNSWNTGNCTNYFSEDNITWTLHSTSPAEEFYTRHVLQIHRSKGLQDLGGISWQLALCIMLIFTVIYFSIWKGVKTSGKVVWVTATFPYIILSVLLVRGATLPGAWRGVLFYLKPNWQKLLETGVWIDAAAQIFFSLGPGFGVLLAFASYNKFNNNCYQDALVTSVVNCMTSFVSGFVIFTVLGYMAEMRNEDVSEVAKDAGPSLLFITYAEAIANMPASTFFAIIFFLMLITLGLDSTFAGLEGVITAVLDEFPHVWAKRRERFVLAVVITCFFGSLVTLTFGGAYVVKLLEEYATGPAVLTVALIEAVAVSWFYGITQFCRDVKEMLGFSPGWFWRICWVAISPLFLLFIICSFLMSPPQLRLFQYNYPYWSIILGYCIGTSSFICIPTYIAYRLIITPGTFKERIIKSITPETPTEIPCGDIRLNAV
UniProt Q01959, whole entry: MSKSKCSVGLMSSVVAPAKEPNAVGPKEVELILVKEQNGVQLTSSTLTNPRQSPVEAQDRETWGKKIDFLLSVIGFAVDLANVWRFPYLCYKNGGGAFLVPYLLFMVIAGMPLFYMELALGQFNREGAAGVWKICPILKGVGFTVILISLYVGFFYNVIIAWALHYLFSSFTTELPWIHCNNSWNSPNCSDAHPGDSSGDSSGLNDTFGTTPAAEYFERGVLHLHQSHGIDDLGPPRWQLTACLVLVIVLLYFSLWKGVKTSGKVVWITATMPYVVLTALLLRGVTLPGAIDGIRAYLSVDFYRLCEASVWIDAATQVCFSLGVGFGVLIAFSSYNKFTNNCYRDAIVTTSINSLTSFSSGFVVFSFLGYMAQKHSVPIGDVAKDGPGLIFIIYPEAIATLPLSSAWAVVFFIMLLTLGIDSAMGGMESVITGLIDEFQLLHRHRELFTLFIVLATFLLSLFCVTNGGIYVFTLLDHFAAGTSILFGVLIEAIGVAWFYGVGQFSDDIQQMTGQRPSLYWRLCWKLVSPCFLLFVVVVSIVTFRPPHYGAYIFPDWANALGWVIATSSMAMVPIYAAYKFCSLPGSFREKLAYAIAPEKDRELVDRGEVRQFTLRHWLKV

Key:
[1] = target: Sodium-dependent serotonin transporter (Rattus norvegicus, UniProt P31652); test: Functional Uptake Assay (rSERT): Quantification of 5-HT uptake was performed using synaptosomes isolated in a 0.32M sucrose buffer from a male Wistar rat cortex. The uptake of radiolabelled 5-HT by synaptosomes (100 ug of proteins/point) was allowed by incubating them in a well for 15 min at 37° C. in presence of test compounds and [3H]5-hydroxytryptamine (serotonin; 0.1 uCi/point). […] This incubation buffer was oxygenated during 5 minutes before incubation. Basal control was incubated for 15 minutes at 4° C. in order to avoid any uptake. […] The radioactivity associated to the synaptosomes retained on the unifilter corresponding to the uptake was then measured with a microplate scintillation counter (Topcount, Packard) using a scintillation fluid.; assay type: subcellular
[2] = target: Sodium-dependent dopamine transporter (Rattus norvegicus, UniProt P23977); test: Functional Uptake Assay (rDAT): Quantification of dopamine uptake was performed using synaptosomes isolated in a 0.32 M sucrose buffer from a male Wistar rat striatum. The uptake of radiolabelled dopamine by synaptosomes (20 ug of proteins/point) was allowed by incubating them for 15 minutes at 37° C. in the presence of test compounds and [3H]-dopamine (0.1 uCi/point). The experiment was performed in a deep well. Synaptosomes and [3H]-dopamine were prepared in a Krebs buffer pH 7.4 containing 25 mM NaHCO3, 11 mM glucose and 50 uM ascorbic acid. This incubation buffer was oxygenated for 5 minutes before incubation. Basal control was incubated for 15 minutes at 4° C. in order to avoid any uptake. Following this incubation, the uptake was stopped by filtration through a unifilter 96-wells GFB Packard plate washed with Krebs buffer containing 25 mM NaHCO3 in order to eliminate free [3H]-dopamine. The radioactivity associated to the synaptosomes retained onto the unifilter corresponding to the uptake was then measured with a microplate scintillation counter (Topcount, Packard) using a scintillation fluid.; assay type: subcellular
[3] = target: Sodium-dependent serotonin transporter (Homo sapiens, UniProt P31645)
[4] = target: Sodium-dependent dopamine transporter (Homo sapiens, UniProt Q01959)

Structure (SMILES)	IC50 [1] [nM]	IC50 [2] [nM]	IC50 [3]	IC50 [4] [nM]
CNCC1(c2ccc(Cl)c(Cl)c2)CCC(C)(O)CC1 (stereo not given)	42	43	–	–
CNCC1(c2ccc(Cl)c(Cl)c2)CCCC(OC)C1 (stereo not given)	–	–	1440 nM and 2050 nM	–
CN(C)C[C@]1(c2ccc(Cl)c(Cl)c2)CCC[C@](C)(O)C1 (relative stereo)	–	–	2190 nM	462
